# Experimental data from PubChem BioAssay AID651661 (Broad Institute, 2012).
# Only a part is listed here, and it is no random draw. Active and inactive are the calls of the source.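 The calls were made as follows: active = mean inhibition of at least 50% after viability correction, with every replicate also passing that limit; inconclusive = mean reaches 50% but only one of two replicates passes; inactive = the rest.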
# Assay: EWS/Fli-driven NR0B1 reporter inhibitors, primary screen, A673 cells, NR0B1 luciferase, luminescence, MLPCN library (AID 651661);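 also: firefly luciferase signal divided by Alamar Blue viability fluorescence both relative to DMSO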
# Conditions: viability-normalised, at 12.6 µM, stronger effect = higher value
row,SMILES,inhibition
1,CCc1ccc(OP(C)(=O)N2CCN(c3ccc([N+](=O)[O-])cc3)CC2)cc1 (configuration not stated),inactive: 11.9%
2,COc1ccccc1OP(C)(=O)Nc1cccc(Br)c1 (configuration not stated),inactive: -13.1%
